PubChem BioAssay (NCI)
The entries are a selection whose mix differs from that of the whole data set.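 Activity criterion: percent growth below 10, measured after cells in 96-well plates were exposed to a single compound concentration for 48 hours.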 Active and inactive are the calls of the source.

Experiments:
Experiment in all cases: NCI-60 one-dose screen, 48 h (100 = growth as untreated, 0 = no growth, -100 = all killed)
[1] = tested on: DU-145 prostate; details: 10 µM unless noted
[2] = tested on: K-562 leukemia; details: 10 µM unless noted
[3] = tested on: MALME-3M melanoma; details: 10 µM unless noted
[4] = tested on: MDA-MB-231 breast; details: 10 µM unless noted
[5] = tested on: RXF 393 renal; details: 10 µM unless noted
[6] = tested on: SF-268 CNS; details: 10 µM unless noted
[7] = tested on: SF-295 CNS; details: 10 µM unless noted
[8] = tested on: SF-539 CNS; details: 10 µM unless noted
[9] = tested on: UACC-257 melanoma; details: 10 µM unless noted
[10] = tested on: M14 melanoma; details: 10 µM unless noted
[11] = tested on: HCT-15 colon; details: 10 µM unless noted
[12] = tested on: HT29 colon; details: 10 µM unless noted
[13] = tested on: SNB-75 CNS; details: 10 µM unless noted
[14] = tested on: SNB-19 CNS; details: 10 µM unless noted
[15] = tested on: U251 CNS; details: 10 µM unless noted
[16] = tested on: PC-3 prostate; details: 10 µM unless noted
[17] = tested on: SK-MEL-5 melanoma; details: 10 µM unless noted
[18] = tested on: UACC-62 melanoma; details: 10 µM unless noted
[19] = tested on: LOX IMVI melanoma; details: 10 µM
[20] = tested on: SK-MEL-28 melanoma; details: 10 µM unless noted

Measured: growth

O=C1CSC(C(Cl)(Cl)Cl)N1c1ccc(Cl)cc1 (stereo not given)
inactive: [1] 109% | [2] 93.5% | [3] 112% | [4] 87.9% | [5] 106% | [6] 98.6% | [7] 84.5% | [8] 109% | [9] 97.9% | [10] 97.5% | [11] 96.1% | [12] 97.8% | [13] 94.2% | [14] 104% | [15] 92.9% | [16] 86.9% | [17] 97.3% | [18] 81.5% | [19] 97% | [20] 106%

CCOP(=O)(NC1CCCCC1)OCC
inactive: [1] 112% | [2] 98.1% | [3] 116% | [4] 105% | [5] 123% | [6] 99% | [7] 108% | [8] 104% | [9] 101% | [10] 101% | [11] 125% | [12] 101% | [13] 100% | [14] 93.2% | [15] 104% | [16] 87.1% | [17] 105% | [18] 88.5% | [19] 78.5% | [20] 107%

O=[N+]([O-])c1ccc(Nc2ccc(Oc3ccc([N+](=O)[O-])cc3[N+](=O)[O-])cc2)c([N+](=O)[O-])c1
inactive: [1] 97.9% | [2] 39.1% | [3] 71.7% | [4] 79.8% | [5] 54.2% | [6] 85.7% | [7] 96.9% | [8] 82.2% | [9] 94.7% | [10] 80.9% | [11] 78.2% | [12] 91.7% | [13] 42.8% | [14] 96.8% | [15] 78% | [16] 81.7% | [17] 75.4% | [18] 56% | [19] 55.9% | [20] 118%

ClCCN1c2ccccc2Oc2ccccc21
inactive: [1] 109% | [2] 99.5% | [3] 99.6% | [4] 112% | [5] 103% | [6] 101% | [7] 91.6% | [8] 102% | [9] 103% | [10] 101% | [11] 96.6% | [12] 105% | [13] 97.7% | [14] 95.9% | [15] 104% | [16] 98.8% | [17] 99.6% | [18] 101% | [19] 105% | [20] 112%

ClCCN(Cc1ccc(Cl)cc1)Cc1ccc(Cl)cc1
inactive: [1] 101% | [2] 87% | [3] 122% | [4] 98.1% | [5] 79.1% | [6] 79.5% | [7] 58.7% | [8] 95.8% | [9] 94.9% | [10] 113% | [11] 85.5% | [12] 74.6% | [13] 89.7% | [14] 84.4% | [15] 87.5% | [16] 42% | [17] 91% | [18] 72.8% | [19] 81.7% | [20] 113%

O=P(Nc1ncccn1)(N1CC1)N1CC1
inactive: [1] 118% | [2] 111% | [3] 104% | [4] 92.1% | [5] 101% | [6] 110% | [7] 95.4% | [8] 102% | [9] 97.8% | [10] 102% | [11] 106% | [12] 106% | [13] 100% | [14] 100% | [15] 98.2% | [16] 85.1% | [17] 96.2% | [18] 101% | [19] 94.7% | [20] 102%

Clc1ccc(P(Cl)Cl)cc1
inactive: [1] 114% | [2] 99.9% | [3] 111% | [4] 89.7% | [5] 112% | [6] 112% | [7] 113% | [8] 93.7% | [9] 98.5% | [10] 108% | [11] 99.2% | [12] 96.5% | [13] 85.9% | [14] 107% | [15] 102% | [16] 81.7% | [17] 111% | [18] 96.4% | [19] 99.6% | [20] 107%

O=P1(N(CCCl)CCCl)NCCC(C(F)(F)F)O1 (stereo not given)
inactive: [1] 99.3% | [2] 119% | [3] 88.3% | [4] 99.3% | [5] 143% | [6] 101% | [7] 101% | [8] 96.1% | [9] 103% | [10] 94.7% | [11] 96.6% | [12] 106% | [13] 110% | [14] 98.8% | [15] 98.3% | [16] 106% | [17] 100% | [18] 97.3% | [19] 102% | [20] 102%

COC(=O)C1(C)COP(=O)(NCc2ccccc2)OC1 (stereo not given)
inactive: [1] 115% | [2] 90.1% | [3] 104% | [4] 111% | [5] 121% | [6] 102% | [7] 106% | [8] 108% | [9] 99.5% | [10] 94.5% | [11] 113% | [12] 99.2% | [13] 93.7% | [14] 98.8% | [15] 107% | [16] 104% | [17] 104% | [18] 90.7% | [19] 95.2% | [20] 112%
